Measurements published in US8822460B2, “Fused cyclopentyl antagonists of CCR2” (Janssen Pharmaceutica, NV, priority 2012, dated 2014).
pIC50: −log10 of the molar value.

Amino acid sequences for entries named in this document (tags omitted). A change or cut given only in a name is not applied to a line headed by its entry.
UniProt P41597: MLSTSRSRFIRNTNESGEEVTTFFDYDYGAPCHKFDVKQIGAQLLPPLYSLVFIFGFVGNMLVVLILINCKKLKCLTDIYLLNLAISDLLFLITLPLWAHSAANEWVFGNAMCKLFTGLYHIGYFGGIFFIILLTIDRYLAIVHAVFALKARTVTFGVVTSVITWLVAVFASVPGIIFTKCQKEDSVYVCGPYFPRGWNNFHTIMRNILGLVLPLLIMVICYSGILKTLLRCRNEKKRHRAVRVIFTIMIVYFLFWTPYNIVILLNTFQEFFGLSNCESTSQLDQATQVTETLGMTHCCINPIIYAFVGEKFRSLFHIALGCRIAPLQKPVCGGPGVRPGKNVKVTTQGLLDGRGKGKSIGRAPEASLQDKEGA

target: CCR2 (Homo sapiens (Human), UniProt P41597); assay: MCP-1 Receptor Binding Assay in THP-1 Cells; details: 0.5 nM 125I labeled MCP-1, THP-1 cells, 2 hours at 30° C.; read-out: Inhibition of MCP-1 Binding IC50, CCR2 Binding
Description: Human monocytic cell line THP-1 cells were obtained from American Type Culture Collection (Manassas, Va., USA). […] The cell density was maintained […].
1 μM cold MCP-1 was used for nonspecific binding.

pIC50 | Compound
6.92 | COC1COCCC1N[C@@H]1C[C@H]2OC(=O)C[C@@]2(C(=O)N2CCc3ncc(C(F)(F)F)cc3C2)C1 (stereo partly drawn) [Example 21, (3aS,5S,6aR)-5-((3-methoxytetrahydro-2H-pyran-4-yl)amino)-3a-(3-(trifluoromethyl)-5,6,7,8-tetrahydro-1,6-naphthyridine-6-carbonyl)hexahydro-2H-cyclopenta[b]furan-2-one]
8.52 | O=C(N1CCc2ccc(C(F)(F)F)cc2C1)[C@@]12CCO[C@@H]1C[C@@H](NC1CCOCC1)C2 [Example 8, ((3aS,5S,6aR)-5-((tetrahydro-2H-pyran-4-yl)amino)hexahydro-2H-cyclopenta[b]furan-3a-yl)(7-(trifluoromethyl)-3,4-dihydroisoquinolin-2(1H)-yl)methanone]
7.62 | COC1COCCC1N[C@@H]1C[C@H]2OC(C)C[C@@]2(C(=O)N2CCc3ncc(C(F)(F)F)cc3C2)C1 (stereo partly drawn) [Example 12, ((3aS,5S,6aR)-5-((3-methoxytetrahydro-2H-pyran-4-yl)amino)-2-methylhexahydro-2H-cyclopenta[b]furan-3a-yl)(3-(trifluoromethyl)-7,8-dihydro-1,6-naphthyridin-6(5H)-yl)methanone]
7.70 | CCCC1C[C@@]2(C(=O)N3CCc4ncc(C(F)(F)F)cc4C3)C[C@H](NC3CCOCC3OC)C[C@H]2O1 (stereo partly drawn) [Example 13, ((3aS,5S,6aR)-5-((3-methoxytetrahydro-2H-pyran-4-yl)amino)-2-propylhexahydro-2H-cyclopenta[b]furan-3a-yl)(3-(trifluoromethyl)-7,8-dihydro-1,6-naphthyridin-6(5H)-yl)methanone]
